Columns and labels:
[1] = molecular target: T1, ALK1 kinase (Homo sapiens (Human), UniProt P37023); assay: In vitro enzyme inhibition using scintillation of incorporated radio label (flashplate assay); assay type: biochemical; conditions: biotinylated α-casein, 33P-ATP, 500 nM ATP
Method: B-1a. In Vitro Enzyme Inhibition Using Scintillation of Incorporated Radio Label (Flashplate Assay)
Test compounds diluted in DMSO are mixed with a suitable substrate/co-substrate (here: biotinylated α-casein and ^33P-ATP) in a corresponding assay buffer. Addition of the enzyme of interest (here: ALK1 kinase) starts the enzyme reaction. The enzyme-catalyzed incorporation of radio label into the substrate is measured via scintillation. Incorporated radio label is separated from free radio label via specific binding of the biotinylated substrate to strepavidin-coated microtiter plates (flashplates) and concomitant washing steps. The scintillation signal intensity (counts per minutes, cpm) is proportional to the enzyme activity. Enzyme inhibition results in a decreased signal intensity. IC50 values of the test compounds are determined by cpm-versus-[I] plots. […]
A volume of 9 μl substrate solution is provided into each well of a 384 well microliter plate (Greiner Bio-One, Solingen, Germany), 1 μl compound solution and 5 μl of the radioactive ATP solution are added. […] Finally, 50 μl washing buffer is added, and the scintillation signal (cpm) is measured in a suitable counter (Perkin Elmer, Rodgau, Germany).

Chains of the proteins cited; added tags and fusions are not shown. Residues count along the entry.
UniProt P37023, 22-503: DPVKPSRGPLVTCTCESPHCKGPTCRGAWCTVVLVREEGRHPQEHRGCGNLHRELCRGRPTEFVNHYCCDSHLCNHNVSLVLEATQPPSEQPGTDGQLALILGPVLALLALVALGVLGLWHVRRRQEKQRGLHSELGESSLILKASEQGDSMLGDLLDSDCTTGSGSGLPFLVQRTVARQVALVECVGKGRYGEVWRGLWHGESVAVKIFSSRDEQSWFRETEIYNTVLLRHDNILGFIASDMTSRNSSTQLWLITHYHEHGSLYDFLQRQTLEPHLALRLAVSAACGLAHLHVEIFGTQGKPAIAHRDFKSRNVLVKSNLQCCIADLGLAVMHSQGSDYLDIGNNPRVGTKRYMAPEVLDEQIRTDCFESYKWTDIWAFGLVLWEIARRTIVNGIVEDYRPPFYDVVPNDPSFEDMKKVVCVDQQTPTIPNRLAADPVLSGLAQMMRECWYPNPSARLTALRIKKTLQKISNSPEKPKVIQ

[2] = molecular target: T1, ALK1 kinase; assay: ALK1 kinase assay (ProQinase protocol); assay type: biochemical; conditions: ProQinase radiometric assay, casein, γ-33P-ATP
Method: B-1b. ALK1 Kinase Assay (ProQinase Protocol)
ALK1 (Invitrogen, Carlsbad, Calif., USA) kinase activity was measured at ProQinase GmbH (Freiburg, Germany) in a radiometric assay using γ-^33P-ATP and casein (Sigma, St. Louis, Mo., USA) as substrate in 96-well PerkinElmer FlashPlates™ (Boston, Mass., USA). The compounds were tested at 10 concentrations in the range of 1×10^−4 M to 3×10^−9 M in a total volume of 50 μl with a final DMSO concentration of 1% each. […]
The reaction mixtures were incubated at 30° C. for 60 minutes and stopped by adding 50 μl 2% (v/v) phosphoric acid. […] Incorporation of ^33Pi was determined with a microplate scintillation counter (Microbeta, Wallac). […]
Median values obtained from unspecific substrate binding of labelled. ATP were set as background level, while median values measured in the absence of any inhibitor were considered to reflect full activity of ALK1 kinase. […] The residual activity in the latter was calculated as follows: residual activity (%)=100×[(tca−ba)/(fa−ba)]
The residual activities for each concentration and the compound IC50 values were calculated using Quattro Workflow V3.1.0 (Quattro Research GmbH, Munich, Germany). […]

IC50 [1] [nM]	IC50 [2] [nM]	Structure (SMILES)
4.4	–	Nc1ncnn2c(C3CCNC3)cc(-c3cc(F)c(CO)c(F)c3)c12 (racemic) [Example 8, rac-{4-[4-Amino-7-(pyrrolidin-3-yl)pyrrolo[2,1-f][1,2,4]triazin-5-yl]-2,6-difluorophenyl}methanol]
–	6.9	Nc1ncnn2c(C3CCNC3)cc(-c3cc(F)c(CO)c(F)c3)c12 (single isomer, unassigned; enantiomer 1) [Example 35, ent-{4-[4-Amino-7-(pyrrolidin-3-yl)pyrrolo[2,1-f][1,2,4]triazin-5-yl]-2,6-difluorophenyl}methanol (enantiomer 1)]
–	21	Nc1ncnn2c(C3CCNC3)cc(-c3cc(F)c(CO)c(F)c3)c12 (single isomer, unassigned; enantiomer 2) [Example 36, ent-{4-[4-Amino-7-(pyrrolidin-3-yl)pyrrolo[2,1-f][1,2,4]triazin-5-yl]-2,6-difluorophenyl}methanol (enantiomer 2)]
